Experimental data reported in PMC6222516, “Comparative Study of Carborane- and Phenyl-Modified Adenosine Derivatives as Ligands for the A2A and A3 Adenosine Receptors Based on a Rigid in Silico Docking and Radioligand Replacement Assay” (Molecules : A Journal of Synthetic Chemistry and Natural …, 2018).

By UniProt entry, the sequences of proteins in these tests, tags left out.
UniProt P0DMS8, whole entry: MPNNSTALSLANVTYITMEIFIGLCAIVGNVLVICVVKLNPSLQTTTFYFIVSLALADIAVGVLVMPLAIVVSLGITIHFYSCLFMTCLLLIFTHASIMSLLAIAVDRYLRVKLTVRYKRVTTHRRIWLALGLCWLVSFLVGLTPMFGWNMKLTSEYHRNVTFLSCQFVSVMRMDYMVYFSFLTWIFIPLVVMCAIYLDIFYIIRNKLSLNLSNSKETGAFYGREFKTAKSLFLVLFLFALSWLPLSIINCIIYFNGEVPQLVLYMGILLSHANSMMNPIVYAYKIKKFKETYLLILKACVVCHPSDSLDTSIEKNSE

Target: adenosine A3 receptor (Homo sapiens, UniProt P0DMS8)
Assay: Radioligand competition binding assay, adenosine A3 receptor ([3H]-NECA)
Conditions: read-out: % Inhib. 10 μM A3

inhibition at 10 µM: 10 ± 1%
SMILES: Nc1ncnc2c1ncn2[C@@H]1O[C@H](CO)[C@@H](O)[C@H]1O [Adenosine]
